How the values were obtained:
AMOTL2 = AMOTL2 (UniProt Q9Y2J4); assay: AP-MS (MS1 intensity); details: parent: est. 34; read off a plot
AMOT = AMOT (UniProt Q4VCS5); assay: AP-MS (MS1 intensity); details: parent: est. 33; read off a plot

Protein sequences, listed by entry. Tags and fused reporters are not part of them. Lines headed by an entry give the natural chain unless they say otherwise; changes in a name come on top.
UniProt Q9Y2J4: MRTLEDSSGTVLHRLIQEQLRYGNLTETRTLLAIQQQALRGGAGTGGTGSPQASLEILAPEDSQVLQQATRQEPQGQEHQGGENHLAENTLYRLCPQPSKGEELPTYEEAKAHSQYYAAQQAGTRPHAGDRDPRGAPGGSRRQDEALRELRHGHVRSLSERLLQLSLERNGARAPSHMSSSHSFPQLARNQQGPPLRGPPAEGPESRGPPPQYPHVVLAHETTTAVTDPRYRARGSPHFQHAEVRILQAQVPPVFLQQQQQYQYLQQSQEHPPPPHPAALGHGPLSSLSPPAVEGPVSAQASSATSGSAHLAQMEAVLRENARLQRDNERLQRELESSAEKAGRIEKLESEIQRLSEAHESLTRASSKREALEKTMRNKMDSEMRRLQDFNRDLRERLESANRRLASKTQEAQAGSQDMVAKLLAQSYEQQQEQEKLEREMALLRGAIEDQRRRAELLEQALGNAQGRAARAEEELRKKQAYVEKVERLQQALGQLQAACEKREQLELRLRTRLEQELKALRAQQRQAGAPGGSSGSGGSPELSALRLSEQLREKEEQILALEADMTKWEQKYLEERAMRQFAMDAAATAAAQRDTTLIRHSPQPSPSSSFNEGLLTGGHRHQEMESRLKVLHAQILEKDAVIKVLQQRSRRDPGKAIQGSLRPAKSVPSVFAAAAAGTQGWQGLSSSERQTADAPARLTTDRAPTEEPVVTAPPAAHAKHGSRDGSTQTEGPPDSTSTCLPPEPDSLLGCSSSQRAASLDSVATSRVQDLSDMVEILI
UniProt Q4VCS5: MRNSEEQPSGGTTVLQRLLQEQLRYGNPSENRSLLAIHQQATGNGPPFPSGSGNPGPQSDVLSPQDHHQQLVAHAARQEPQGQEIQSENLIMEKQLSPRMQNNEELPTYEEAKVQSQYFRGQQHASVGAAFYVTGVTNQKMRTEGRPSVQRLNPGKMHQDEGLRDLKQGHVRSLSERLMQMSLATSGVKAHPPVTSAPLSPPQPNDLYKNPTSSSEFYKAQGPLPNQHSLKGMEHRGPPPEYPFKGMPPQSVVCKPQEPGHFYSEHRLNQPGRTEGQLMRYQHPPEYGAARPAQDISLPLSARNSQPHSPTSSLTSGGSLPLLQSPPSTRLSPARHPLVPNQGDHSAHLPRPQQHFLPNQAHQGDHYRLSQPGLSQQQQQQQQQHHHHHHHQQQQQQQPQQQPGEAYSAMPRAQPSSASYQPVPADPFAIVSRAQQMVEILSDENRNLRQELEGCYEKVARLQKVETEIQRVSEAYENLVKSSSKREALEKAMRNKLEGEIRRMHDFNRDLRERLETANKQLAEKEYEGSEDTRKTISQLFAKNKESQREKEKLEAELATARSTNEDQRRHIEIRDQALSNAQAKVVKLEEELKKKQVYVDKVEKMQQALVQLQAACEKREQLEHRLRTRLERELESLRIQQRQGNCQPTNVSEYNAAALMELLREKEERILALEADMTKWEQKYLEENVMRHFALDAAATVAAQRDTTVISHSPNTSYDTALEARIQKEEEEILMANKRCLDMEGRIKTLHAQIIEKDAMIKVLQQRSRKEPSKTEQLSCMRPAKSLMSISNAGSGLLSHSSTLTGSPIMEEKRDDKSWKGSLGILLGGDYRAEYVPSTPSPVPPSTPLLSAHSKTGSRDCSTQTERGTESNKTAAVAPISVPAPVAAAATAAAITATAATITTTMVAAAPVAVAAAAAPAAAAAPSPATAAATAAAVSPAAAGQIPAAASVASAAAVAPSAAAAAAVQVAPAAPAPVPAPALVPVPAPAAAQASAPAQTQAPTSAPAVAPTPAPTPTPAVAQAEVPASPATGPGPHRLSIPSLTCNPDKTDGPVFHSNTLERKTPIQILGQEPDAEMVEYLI

response (log2(Intensity)) (AMOTL2): 33
response (log2(Intensity)) (AMOT): 33
Substance: Strep‐HA YAP1 (wild type) S367A
